The results in this text go back to patent US20150253335.

This data set deals with T1, holo-E. coli AcpP.
T1 chain: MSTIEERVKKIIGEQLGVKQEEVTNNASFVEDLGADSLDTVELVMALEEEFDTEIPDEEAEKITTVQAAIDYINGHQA

B1: acyl carrier protein hydrolase (AcpH) from Pseudomonas fluorescens NCIMB 10586 (protein)
chain: MNYLAHLHLGGQLPAQLLGSLYGDFVKGRLQGQFSPQIEAAIQLHRSIDRFTDSHPLVGEALSRFSQTRRRYAGIVLDVFFDHCLARDWALYADQPLERFTSHVYQVLAAEPALPGRLAQIAPYMAADDWLGSYREFAVMEQVLRGISRRLTQPEELGYAMQELRVLYEPLSEDFRLFYPELQAFALQF
Regarding B1, the kcat/KM (commonly the turnover number divided by the Michaelis constant) was determined as 1000 M⁻¹ s⁻¹.
